# Antibody variant affinities, Ab-95 light chain, assay 2

All variants were tested on one target, the spike HR2 peptide PDVDLGDISGINAS (SARS-CoV-2).

Parent: Ab-95, a human scFv built as VH, three GGGGS repeats, VL. Only the CDRs of the light chain vary.
VH: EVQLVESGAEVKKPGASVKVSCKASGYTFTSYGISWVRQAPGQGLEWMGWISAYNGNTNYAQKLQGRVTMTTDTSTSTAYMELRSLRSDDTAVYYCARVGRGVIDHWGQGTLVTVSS
VL: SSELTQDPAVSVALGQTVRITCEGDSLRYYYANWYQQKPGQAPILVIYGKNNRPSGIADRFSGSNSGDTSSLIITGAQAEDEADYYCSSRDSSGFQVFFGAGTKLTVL

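Phage display of a naive human antibody library on the peptide gave the parent. AAYL52 was designed without a model: most single CDR substitutions and a random sample of double and triple ones. AlphaSeq pools MATa yeast showing the antibodies with MATalpha yeast showing the peptide. After mating in shaken culture at 30 °C for 16 h, diploids were selected and their barcode pairs sequenced. Read counts were normalised to the haploid input and turned into Kd by a linear fit to BCL2-family pairs of known affinity, for each replicate. There are three technical replicates.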

Positions count from residue 1 of the parent VL; D91Y puts Y in place of D. Numbers give log10(Kd / nM), so 0 is 1 nM and 3 is 1 µM. Smaller is tighter. A mean of the replicates is given; it leaves out those without a signal. "n.d." means that the variant was in the library but no mating with the target was seen in that replicate; the authors take this as a sign of poor binding, and no number exists. For reference, the parent read 2.31 as the reference entry and 2.25 as a member of this library.

| # | changes | log10 Kd, replicates | mean, log10 nM | empty controls |
|---|---|---|---|---|
| 1 | D91Y+F95A | 2.49 / 2.70 / 2.46 | 2.55 | 3 of 9 (4.44) |
| 2 | S26Q+D91P+F95L | 4.46 / 3.44 / n.d. | 3.95 | 5 of 9 (3.79) |
| 3 | Y31W+N33V+F95A | 4.01 / 3.68 / n.d. | 3.84 | 2 of 9 (3.94) |
| 4 | S89A+V97C | 3.50 / 3.67 / 3.09 | 3.42 | 1 of 9 (3.60) |
| 5 | Y29S+D91Q+F95I | 2.84 / 2.88 / 2.45 | 2.72 | 4 of 9 (4.03) |
| 6 | G24A+G94F | 2.79 / 3.05 / 3.30 | 3.05 | 3 of 9 (4.58) |
| 7 | E23N+S89T | 2.26 / 1.85 / 1.64 | 1.92 | 2 of 9 (3.42) |
| 8 | P54N+S93N+Q96G | 2.54 / 2.18 / 2.08 | 2.27 | 0 of 9 |
| 9 | A32G+G49D+G94D | n.d. / 4.06 / n.d. | 4.06 | 1 of 9 (4.04) |
| 10 | G94K+F98M | 3.37 / 5.38 / n.d. | 4.38 | 2 of 9 (3.41) |
| 11 | A32M+N52T | 4.58 / 4.39 / n.d. | 4.49 | 2 of 9 (3.72) |
| 12 | D25Q+S92G+S93W | 2.63 / 2.02 / 1.93 | 2.19 | 2 of 9 (3.59) |
| 13 | G24I+N52I | 4.26 / 3.93 / 4.08 | 4.09 | 6 of 9 (3.93) |
| 14 | G49W+G94N+Q96M | n.d. / n.d. / n.d. | n.d. | 1 of 9 (3.86) |
| 15 | E23C+S26N+K50S | 4.85 / n.d. / n.d. | 4.85 | 3 of 9 (4.48) |
| 16 | L27P+P54D+S92T | n.d. / n.d. / n.d. | n.d. | 1 of 9 (3.93) |
| 17 | L27K+R28P+N33I | 3.56 / 4.70 / 4.06 | 4.11 | 3 of 9 (3.79) |
| 18 | A32E+D91P+S92C | 2.79 / 2.89 / 2.66 | 2.78 | 3 of 9 (3.76) |
| 19 | Y30A+S92V | 1.44 / 1.40 / 1.05 | 1.30 | 7 of 9 (4.32) |
| 20 | S26F+Y31H+S88R | 3.61 / n.d. / n.d. | 3.61 | 2 of 9 (3.50) |
| 21 | K50D+S55V+D91V | 3.94 / n.d. / n.d. | 3.94 | 2 of 9 (3.12) |
| 22 | Y30G+G49V+S92W | 3.06 / 2.75 / 3.46 | 3.09 | 4 of 9 (3.40) |
| 23 | Y31H+S55A+S89F | n.d. / n.d. / n.d. | n.d. | 4 of 9 (3.87) |
| 24 | R90I+D91P | 2.77 / 3.00 / 2.13 | 2.64 | 2 of 9 (4.47) |
| 25 | Y29A+Y31P+S89Y | 2.35 / 2.87 / 1.97 | 2.40 | 5 of 9 (3.66) |
| 26 | Y30A+S89E+R90T | 1.50 / 1.41 / 0.95 | 1.29 | 5 of 9 (4.51) |
| 27 | G49Y+R53L+G94N | 3.91 / n.d. / n.d. | 3.91 | 1 of 9 (3.31) |
| 28 | Y29C+Y31T+Q96R | 3.45 / 2.99 / 3.84 | 3.43 | 4 of 9 (4.52) |
| 29 | R28G+K50S+S93I | 2.06 / 2.04 / 1.97 | 2.02 | 5 of 9 (3.31) |
| 30 | R53A+S93R+Q96G | 3.92 / n.d. / n.d. | 3.92 | 4 of 9 (3.60) |
| 31 | D25L+Y29L | 4.48 / 4.31 / 3.00 | 3.93 | 2 of 9 (4.03) |
| 32 | R28M+G49S+R90L | 4.14 / n.d. / n.d. | 4.14 | 3 of 9 (3.66) |

The 2 strongest on average among those seen in every replicate, once more:

| changes | log10 Kd, replicates | mean, log10 nM | empty controls |
|---|---|---|---|
| Y30A+S89E+R90T | 1.50 / 1.41 / 0.95 | 1.29 | 5 of 9 (4.51) |
| Y30A+S92V | 1.44 / 1.40 / 1.05 | 1.30 | 7 of 9 (4.32) |

Nonspecific signal, from three strains lacking the peptide, appeared in 28% of pairings of library AAYL52, centred on 3.91 (5% of these signals below 2.90); values are not corrected for it. The control count says in how many pairings with the empty strains this scFv gave a signal, with their mean in brackets.

Data: MIT Lincoln Laboratory AlphaSeq set, Engelhart et al. 2022, doi:10.1038/s41597-022-01779-4, as distributed in FLAb.